According to PubChem BioAssay AID540317 (National Center for Advancing Translational Sciences (NCATS), 2011):
The entries are a selection whose mix differs from that of the whole data set. Records with an inconclusive call do not appear. Active and inactive are the calls of the source. The call rests on the fitted dose curve; in most records, active means well fitted inhibition curve with a large enough effect; inconclusive means small, poorly fitted or top-dose-only effect; inactive means no such curve, though single readings can be large or run the other way.

Amino acid sequences for entries named in this document (tags omitted).
UniProt P83916, whole entry: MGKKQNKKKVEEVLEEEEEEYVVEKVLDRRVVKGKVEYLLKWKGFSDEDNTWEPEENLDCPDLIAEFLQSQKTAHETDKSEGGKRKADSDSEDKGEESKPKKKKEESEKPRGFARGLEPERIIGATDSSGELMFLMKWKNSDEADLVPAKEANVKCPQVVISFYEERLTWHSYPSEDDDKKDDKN

What follows are compounds tested against Chromobox protein homolog 1 (Homo sapiens) (UniProt P83916) (assay: HTS for Inhibitors of HP1-beta Chromodomain Interactions with Methylated Histone Tails). Conditions: AlphaScreen HP1-beta / biotin-H3K9me3 peptide binding; at 114 µM (top of the series).
Further: nearly all actives have a fitted effect of over 70% in size.

Q: How did the activity change, negative = inhibition turn out when `CCC(=O)N(c1ccccc1)C1(COC)CCN(CCn2nnn(CC)c2=O)CC1` was run?
A: inactive: 28.9%

Q: `CCC(=O)N(c1ccccc1)C1(COC)CCN(CCc2cccs2)CC1` was tested. Which activity change, negative = inhibition did it give?
A: inactive: 7.29%
